Earlier results on one molecule are cited in patent US20170202782A1 (Abraxis BioScience, LLC, priority 2014, published 2017).

The chains behind the UniProt entries cited, without tags or fusion partners.
UniProt P10415, whole entry: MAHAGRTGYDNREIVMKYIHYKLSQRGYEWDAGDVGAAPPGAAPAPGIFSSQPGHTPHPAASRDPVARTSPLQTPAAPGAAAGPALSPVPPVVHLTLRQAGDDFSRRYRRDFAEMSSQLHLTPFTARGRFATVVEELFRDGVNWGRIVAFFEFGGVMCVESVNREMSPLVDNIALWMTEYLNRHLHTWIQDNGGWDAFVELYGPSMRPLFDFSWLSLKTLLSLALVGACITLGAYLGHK

pKi: −log10 of the molar value. Where only a bound is given, the exact number is not on record here.

The target of this series is Bcl-2 (Homo sapiens, UniProt P10415). As to conditions: cited from earlier work.

As to `CC1(C)CCC(c2ccc(Cl)cc2)=C(CN2CCN(c3ccc(C(=O)NS(=O)(=O)c4ccc(N[C@H](CCN5CCOCC5)CSc5ccccc5)c(S(=O)(=O)C(F)(F)F)c4)cc3)CC2)C1` [ABT-263], the pKi was at least 9.30.
